Experimental data reported in patent US11603377B2, “MTORC1 modulators and uses thereof” (Aeovian Pharmaceuticals, Inc., priority 2020, dated 2023).

By UniProt entry, the sequences of proteins in these tests, tags left out.
UniProt Q13451, whole entry: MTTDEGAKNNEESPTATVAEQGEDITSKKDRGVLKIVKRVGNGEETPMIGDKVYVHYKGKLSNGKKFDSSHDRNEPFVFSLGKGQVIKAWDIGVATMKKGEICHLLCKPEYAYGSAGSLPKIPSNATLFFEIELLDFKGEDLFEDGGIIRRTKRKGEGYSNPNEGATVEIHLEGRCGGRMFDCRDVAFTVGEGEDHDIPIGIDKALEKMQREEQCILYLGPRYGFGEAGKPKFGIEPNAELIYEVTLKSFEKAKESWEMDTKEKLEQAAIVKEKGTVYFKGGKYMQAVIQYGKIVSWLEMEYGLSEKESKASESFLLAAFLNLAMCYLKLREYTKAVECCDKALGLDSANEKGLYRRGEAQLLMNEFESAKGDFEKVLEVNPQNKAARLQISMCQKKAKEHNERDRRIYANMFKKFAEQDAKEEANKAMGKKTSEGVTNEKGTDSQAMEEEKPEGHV

Tests used:
mTORC2 = mTORC2 (Homo sapiens (Human), UniProt P42345+P62942); experiment: mTORC2 inhibition, AlphaLISA of Phospho-AKT (pAKT pS473) in PC3 cells; format: cell-based
mTORC1 = mTORC1 (Homo sapiens (Human), UniProt P42345+P62942); experiment: mTORC1 inhibition, AlphaLISA of Phospho-p70 S6 kinase (p70S6K pT389) in PC-3 cells; format: cell-based; conditions: read-out: mTORC1 IC50, inhibition of p70S6K pT389 levels
FKBP51 = FKBP51 (Homo sapiens (Human), UniProt Q13451); experiment: SPR assay to determine binding affinity to FKBP51 (direct binding); conditions: read-out: FKBP51 Kd, immobilized biotinylated avi-FKBP51
[1] = biological target: FKBP51 / FRB ternary complex (Homo sapiens (Human), UniProt P42345+Q13451); experiment: SPR assay to characterize ternary complex formation with FKBP51 (FRB binding to rapalog-saturated FKBP51); conditions: read-out: FKBP51 ternary complex Kd, FRB dilutions with 100 nM rapalog on immobilized FKBP51
[2] = biological target: FKBP12 / FRB ternary complex (Homo sapiens (Human), UniProt P42345+P62942); experiment: SPR assay to characterize ternary complex formation with FKBP12 (FRB binding to rapalog-saturated FKBP12); conditions: read-out: FKBP12 ternary complex Kd, FRB dilutions with 100 nM rapalog on immobilized FKBP12
FKBP12 = FKBP12 (Homo sapiens (Human), UniProt P62942); experiment: SPR assay to determine binding affinity to FKBP12 (direct binding); conditions: read-out: FKBP12 Kd, immobilized biotinylated avi-FKBP12

`CO[C@@H]1C[C@H](C[C@@H](C)[C@@H]2CC(=O)[C@H](C)/C=C(\C)[C@@H](O)[C@@H](OC)C(=O)[C@H](C)C[C@H](C)/C=C/C=C/C=C(\C)[C@@H](O[C@H]3CCOC3)C[C@@H]3CC[C@@H](C)[C@@](O)(O3)C(=O)C(=O)N3CCCC[C@H]3C(=O)O2)CC[C@H]1O` was tested, and the “mTORC2 % inhibition at 1 uM” value (mTORC2) was “A (A ≤20% inhibition at 1 micro Molar (uM))”, the IC50 (mTORC1) was over 0.8 nM and the Kd (FKBP51) was over 100 nM. It also gave a Kd [1] of over 800 nM, a Kd [2] of over 800 nM and a Kd (FKBP12) of under 0.3 nM.
